From patent publication US20210254056A1, “IDENTIFICATION AND TARGETED MODULATION OF GENE SIGNALING NETWORKS” (CAMP4 THERAPEUTICS CORPORATION, priority 2017, published 2021)
“And” between values parts separate entries of the source, which are not always exact repeats. Equal values may be shown once.

Key:
[1] = system: hepatocytes;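 on qRT-PCR log2fc, CYP7A1: Compound-treated versus DMSO control, target Ct normalized to GAPDH or β-actin reference (ΔΔCt method), positive values mean higher expression than DMSO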
[2] = system: hepatocytes; remark: listed apart in the source;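 on qRT-PCR log2fc, CYP7A1: Compound-treated versus DMSO control, target Ct normalized to GAPDH or β-actin reference (ΔΔCt method), positive values mean higher expression than DMSO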
[3] = system: TF1 cells; assay: ATP cell viability assay (IC50) in TF1 cells; details: for Amount of ATP, cell viability assay, Avg.: average; for Amount of ATP, cell viability assay: single replicates
[4] = system: CB-CI-IRES-CD34+ primary cells; assay: ATP cell viability assay (IC50) in CD34+ cells; details: for Amount of ATP, cell viability assay, Avg.: average of triplicate; for Amount of ATP, cell viability assay: single replicates 1-3

Question: CO[C@H]1/C=C/O[C@@]2(C)Oc3c(C)c(O)c4c(O)c(c(/C=N/N5CCN(C)CC5)c(O)c4c3C2=O)NC(=O)/C(C)=C\C=C\[C@H](C)[C@H](O)[C@@H](C)[C@@H](O)[C@@H](C)[C@H](OC(C)=O)[C@@H]1C [MT-901, Rifampicin] was tested. Which “qRT-PCR log2fc, CYP7A1” value [1] did it give?
Answer: Its value is −1.65.

Question: What about the “Cuffdiff log2fc, CYP7A1” value [2] of the same molecule?
Answer: Its value is −1.27.

Question: Which results are given for COc1ccc(C2=N[C@@H](c3ccc(Cl)cc3)[C@@H](c3ccc(Cl)cc3)N2C(=O)N2CCNC(=O)C2)c(OC(C)C)c1 [Nutlin 3a]?
Answer: Amount of ATP, cell viability assay, Avg. ([3]; 0.08625 μM): 1380642; Amount of ATP, cell viability assay ([3]; 0.08625 μM): 1477730 and 1426195 and 1238001; Amount of ATP, cell viability assay, Avg. ([3]; 0.7 μM): 1370746; Amount of ATP, cell viability assay ([3]; 0.7 μM): 1465593 and 1321104 and 1325541; Amount of ATP, cell viability assay, Avg. ([3]; 3.125 μM): 1387602; Amount of ATP, cell viability assay ([3]; 3.125 μM): 1326585 and 1450508 and 1385714; Amount of ATP, cell viability assay, Avg. ([3]; 6.252 μM): 1352389; Amount of ATP, cell viability assay ([3]; 6.252 μM): 1460412 and 1231790 and 1364965; Amount of ATP, cell viability assay, Avg. ([3]; 12.5 μM): 1377862; Amount of ATP, cell viability assay ([3]; 12.5 μM): 1340587 and 1403123 and 1389877; Amount of ATP, cell viability assay, Avg. ([3]; 25 μM): 1474911; Amount of ATP, cell viability assay ([3]; 25 μM): 1518028 and 1486252 and 1420453; Amount of ATP, cell viability assay, Avg. ([3]; 50 μM): 1260586; Amount of ATP, cell viability assay ([3]; 50 μM): 1246588 and 1204019 and 1331152; Amount of ATP, cell viability assay, Avg. ([3]; 100 μM): 25091; Amount of ATP, cell viability assay ([3]; 100 μM): 23934 and 23542 and 27797; Amount of ATP, cell viability assay, Avg. ([4]; 0.08625 μM): 582565; Amount of ATP, cell viability assay ([4]; 0.08625 μM): 588229 and 590199 and 569267; Amount of ATP, cell viability assay, Avg. ([4]; 0.7 μM): 577863; Amount of ATP, cell viability assay ([4]; 0.7 μM): 603745 and 579055 and 550788; Amount of ATP, cell viability assay, Avg. ([4]; 3.125 μM): 523052; Amount of ATP, cell viability assay ([4]; 3.125 μM): 539839 and 515592 and 513726; Amount of ATP, cell viability assay, Avg. ([4]; 6.252 μM): 481328; Amount of ATP, cell viability assay ([4]; 6.252 μM): 481101 and 491124 and 471758; Amount of ATP, cell viability assay, Avg. ([4]; 12.5 μM): 457194; Amount of ATP, cell viability assay ([4]; 12.5 μM): 496305 and 442760 and 432516; Amount of ATP, cell viability assay, Avg. ([4]; 25 μM): 458416; Amount of ATP, cell viability assay ([4]; 25 μM): 465507 and 460965 and 448776; Amount of ATP, cell viability assay, Avg. ([4]; 50 μM): 449298; Amount of ATP, cell viability assay ([4]; 50 μM): 463223 and 463614 and 421058; Amount of ATP, cell viability assay, Avg. ([4]; 100 μM): 404620; Amount of ATP, cell viability assay ([4]; 100 μM): 429802 and 424673 and 359384
